Measurements from patent publication US8426453B2 (Astellas Pharma Inc., priority 2006, dated 2013).

Amino acid sequences for entries named in this document (tags omitted).
UniProt P80457, whole entry: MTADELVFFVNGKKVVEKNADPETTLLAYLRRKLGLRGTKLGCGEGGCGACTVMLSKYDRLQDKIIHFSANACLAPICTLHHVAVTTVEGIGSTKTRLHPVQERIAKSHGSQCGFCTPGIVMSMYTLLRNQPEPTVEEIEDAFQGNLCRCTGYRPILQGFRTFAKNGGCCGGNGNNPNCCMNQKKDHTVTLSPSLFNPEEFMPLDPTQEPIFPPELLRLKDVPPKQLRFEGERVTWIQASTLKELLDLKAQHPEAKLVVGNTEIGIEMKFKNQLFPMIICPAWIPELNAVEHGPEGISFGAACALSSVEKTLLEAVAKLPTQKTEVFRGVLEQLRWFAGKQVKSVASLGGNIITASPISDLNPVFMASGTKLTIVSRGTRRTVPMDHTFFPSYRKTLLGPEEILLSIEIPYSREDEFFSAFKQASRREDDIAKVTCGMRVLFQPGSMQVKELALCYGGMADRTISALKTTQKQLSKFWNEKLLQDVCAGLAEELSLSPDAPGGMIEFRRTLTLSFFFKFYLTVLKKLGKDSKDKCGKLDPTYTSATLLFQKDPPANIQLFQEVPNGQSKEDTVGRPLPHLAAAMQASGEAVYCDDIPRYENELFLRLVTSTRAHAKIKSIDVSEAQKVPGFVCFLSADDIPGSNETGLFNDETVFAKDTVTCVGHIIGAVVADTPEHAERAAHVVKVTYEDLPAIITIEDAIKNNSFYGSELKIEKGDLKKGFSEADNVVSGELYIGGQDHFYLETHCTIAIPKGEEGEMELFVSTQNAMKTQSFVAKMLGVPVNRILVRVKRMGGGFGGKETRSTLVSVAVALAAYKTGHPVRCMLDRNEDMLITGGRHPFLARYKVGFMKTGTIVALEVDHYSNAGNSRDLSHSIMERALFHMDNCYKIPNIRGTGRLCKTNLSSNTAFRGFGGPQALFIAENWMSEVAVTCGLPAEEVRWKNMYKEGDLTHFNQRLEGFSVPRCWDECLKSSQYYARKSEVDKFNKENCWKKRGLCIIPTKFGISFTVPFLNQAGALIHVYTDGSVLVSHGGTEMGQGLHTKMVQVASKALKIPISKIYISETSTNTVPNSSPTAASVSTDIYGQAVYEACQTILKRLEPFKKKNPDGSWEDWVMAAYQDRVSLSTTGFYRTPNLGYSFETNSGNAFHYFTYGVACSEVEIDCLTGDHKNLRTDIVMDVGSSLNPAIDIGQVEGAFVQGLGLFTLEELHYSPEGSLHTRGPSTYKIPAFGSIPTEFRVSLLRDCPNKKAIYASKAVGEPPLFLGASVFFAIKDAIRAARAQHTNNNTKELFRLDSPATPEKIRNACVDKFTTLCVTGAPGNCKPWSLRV

Target: xanthine oxidase (derived from butter milk, by Sigma) (Bos taurus, UniProt P80457)
Test: Xanthine oxidase inhibiting activity (pterin fluorescence assay)
Conditions: read-out: IC50 (xanthine oxidase inhibiting activity); xanthine oxidase 0.03 units/ml, pterin 5 μM, room temperature

- IC50: 0.5 nM
SMILES: CC(C)(C)c1ccc(-c2ccc(-c3ccc(C(=O)O)s3)cc2C#N)cc1
